From patent publication US7759499B2, “Compounds as inhibitors of hepatitis C virus NS3 serine protease” (Schering Corporation, priority 2004, dated 2010)

Sequences of proteins named here, by UniProt entry; tags and fusion partners are left off. Residues count along the entry.
UniProt P27958, 1027-1657: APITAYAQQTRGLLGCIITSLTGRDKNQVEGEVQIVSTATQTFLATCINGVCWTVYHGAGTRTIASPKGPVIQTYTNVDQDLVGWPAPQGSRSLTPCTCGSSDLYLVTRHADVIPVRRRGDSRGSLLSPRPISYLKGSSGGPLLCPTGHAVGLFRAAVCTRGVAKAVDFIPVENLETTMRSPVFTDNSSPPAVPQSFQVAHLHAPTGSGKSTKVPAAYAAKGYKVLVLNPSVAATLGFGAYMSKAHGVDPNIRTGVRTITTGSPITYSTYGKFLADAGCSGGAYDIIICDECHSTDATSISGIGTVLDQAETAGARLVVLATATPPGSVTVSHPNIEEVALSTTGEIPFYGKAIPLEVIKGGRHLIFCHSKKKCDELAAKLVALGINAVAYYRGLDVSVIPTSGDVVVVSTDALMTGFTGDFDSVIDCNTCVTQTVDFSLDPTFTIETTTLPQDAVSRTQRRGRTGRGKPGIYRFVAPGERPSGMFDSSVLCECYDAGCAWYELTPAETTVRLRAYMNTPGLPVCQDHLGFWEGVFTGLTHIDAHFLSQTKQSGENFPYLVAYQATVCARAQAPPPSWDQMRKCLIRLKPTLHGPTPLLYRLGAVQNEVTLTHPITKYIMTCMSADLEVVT
UniProt P27958, 1658-1711: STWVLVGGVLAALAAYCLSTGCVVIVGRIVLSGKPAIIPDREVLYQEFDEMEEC

Each compound was assayed against Recombinant heterodimeric HCV NS3/NS4A protease (strain 1a) (Hepatitis C virus genotype 1a, UniProt P27958) (assay: Spectrophotometric assay for HCV protease inhibitory activity). Details: Table 2, range.
Type: biochemical

| Structure (SMILES) | Ki [nM] |
| --- | --- |
| CCCCC(NC(=O)[C@@H]1[C@@H]2[C@H](CN1C(=O)[C@@H](NC(=O)N[C@H](CN(C)S(C)(=O)=O)C(C)(C)C)C1(C)CCCCC1)C2(C)C)C(=O)C(N)=O (some centres unmarked) [Compound 11179] | ≤ 75 |
| CCCCC(NC(=O)[C@@H]1[C@@H]2[C@H](CN1C(=O)[C@@H](NC(=O)N[C@H](CN(C)S(C)(=O)=O)C(C)(C)C)C1Cc3ccccc3C1)C2(C)C)C(=O)C(N)=O (some centres unmarked) [Compound 11180] | ≤ 75 |
| C=CCNC(=O)C(=O)C(CC1CC1)NC(=O)[C@@H]1[C@@H]2[C@H](CN1C(=O)[C@@H](NC(=O)N[C@H](CN(C(C)C)S(C)(=O)=O)C(C)(C)C)C(C)(C)C)C2(C)C (some centres unmarked) [Compound 11181] | ≤ 75 |
| C=CCNC(=O)C(=O)C(CCCC)NC(=O)[C@@H]1[C@@H]2[C@H](CN1C(=O)[C@@H](NC(=O)N[C@H](CN(C(C)C)S(C)(=O)=O)C(C)(C)C)C(C)(C)C)C2(C)C (some centres unmarked) [Compound 11182] | ≤ 75 |
| CC(C)N(C[C@@H](NC(=O)N[C@H](C(=O)N1C[C@H]2[C@@H]([C@H]1C(=O)NC(CC1CCC1)C(=O)C(N)=O)C2(C)C)C(C)(C)C)C(C)(C)C)S(C)(=O)=O (some centres unmarked) [Compound 11183] | ≤ 75 |
| CCN(C[C@@H](NC(=O)N[C@H](C(=O)N1C[C@H]2[C@@H]([C@H]1C(=O)NC(CC1CCC1)C(=O)C(N)=O)C2(C)C)C(C)(C)C)C(C)(C)C)S(C)(=O)=O (some centres unmarked) [Compound 11184] | ≤ 75 |
| CN(C[C@@H](NC(=O)N[C@H](C(=O)N1C[C@H](OC(C)(C)C)C[C@H]1C(=O)NC(CC1CCC1)C(=O)C(N)=O)C1CCCCC1)C(C)(C)C)S(C)(=O)=O (some centres unmarked) [Compound 11185] | ≤ 75 |
| CN(C[C@@H](NC(=O)N[C@H](C(=O)N1C[C@H](OC(C)(C)C)C[C@H]1C(=O)NC(CC1CC1)C(=O)C(N)=O)C1CCCCC1)C(C)(C)C)S(C)(=O)=O (some centres unmarked) [Compound 11186] | ≤ 75 |
| CN(C[C@@H](NC(=O)N[C@H](C(=O)N1C[C@H]2[C@@H]([C@H]1C(=O)NC(CC1CC1)C(=O)C(N)=O)C2(C)C)C1Cc2ccccc2C1)C(C)(C)C)S(=O)(=O)c1cccs1 (some centres unmarked) [Compound 11187] | ≤ 75 |
| CN(C[C@@H](NC(=O)N[C@H](C(=O)N1C[C@H]2[C@@H]([C@H]1C(=O)NC(CC1CCC1)C(=O)C(N)=O)C2(C)C)C1Cc2ccccc2C1)C(C)(C)C)S(=O)(=O)c1cccs1 (some centres unmarked) [Compound 11188] | ≤ 75 |
| C#CCCC(NC(=O)[C@@H]1[C@@H]2[C@H](CN1C(=O)[C@@H](NC(=O)N[C@H](CN(C)S(C)(=O)=O)C(C)(C)C)C1Cc3ccccc3C1)C2(C)C)C(=O)C(=O)NCC=C (some centres unmarked) [Compound 11189] | ≤ 75 |
| CCCCC(NC(=O)[C@@H]1[C@@H]2[C@H](CN1C(=O)[C@@H](NC(=O)N[C@H](CN(C)S(C)(=O)=O)C(C)(C)C)C1Cc3ccccc3C1)C2(C)C)C(=O)C(=O)NCC (some centres unmarked) [Compound 11190] | ≤ 75 |
| CCCC(NC(=O)[C@@H]1[C@@H]2[C@H](CN1C(=O)[C@@H](NC(=O)N[C@H](CN(C)S(C)(=O)=O)C(C)(C)C)C1Cc3ccccc3C1)C2(C)C)C(=O)C(N)=O (some centres unmarked) [Compound 11191] | ≤ 75 |
| C#CCCC(NC(=O)[C@@H]1C[C@@H](OC(C)(C)C)CN1C(=O)[C@@H](NC(=O)N[C@H](CN(C)S(C)(=O)=O)C(C)(C)C)C1CCCCC1)C(=O)C(=O)NCC=C (some centres unmarked) [Compound 11192] | ≤ 75 |
| C=CCNC(=O)C(=O)C(CCC(F)(F)F)NC(=O)[C@@H]1C[C@@H](OC(C)(C)C)CN1C(=O)[C@@H](NC(=O)N[C@H](CN(C)S(C)(=O)=O)C(C)(C)C)C1CCCCC1 (some centres unmarked) [Compound 11193] | 75 to 250 |
| C=CCNC(=O)C(=O)C(CCC)NC(=O)[C@@H]1C[C@@H](OC(C)(C)C)CN1C(=O)[C@@H](NC(=O)N[C@H](CN(C)S(C)(=O)=O)C(C)(C)C)C1CCCCC1 (some centres unmarked) [Compound 11194] | 75 to 250 |

| Structure (SMILES) | Ki [nM] |
| --- | --- |
| C=CCNC(=O)C(=O)C(CCCC)NC(=O)[C@@H]1C[C@@H](OC(C)(C)C)CN1C(=O)[C@@H](NC(=O)N[C@H](CN(C)S(C)(=O)=O)C(C)(C)C)C1CCCCC1 (some centres unmarked) [Compound 11195] | 75 to 250 |
| CCCC(NC(=O)[C@@H]1C[C@@H](OC(C)(C)C)CN1C(=O)[C@@H](NC(=O)N[C@H](CN(C)S(C)(=O)=O)C(C)(C)C)C1CCCCC1)C(=O)C(N)=O (some centres unmarked) [Compound 11196] | ≤ 75 |
| CCCCC(NC(=O)[C@@H]1C[C@@H](OC(C)(C)C)CN1C(=O)[C@@H](NC(=O)N[C@H](CN(C)S(C)(=O)=O)C(C)(C)C)C1CCCCC1)C(=O)C(N)=O (some centres unmarked) [Compound 11197] | ≤ 75 |
| C#CCCC(NC(=O)[C@@H]1[C@@H]2[C@H](CN1C(=O)[C@@H](NC(=O)N[C@H](CN(C)S(C)(=O)=O)C(C)(C)C)C1(C)CCCCC1)C2(C)C)C(=O)C(=O)NCCC (some centres unmarked) [Compound 11198] | ≤ 75 |
| CCCCC(NC(=O)[C@@H]1[C@@H]2[C@H](CN1C(=O)[C@@H](NC(=O)N[C@H](CN(C)S(C)(=O)=O)C(C)(C)C)C1(C)CCCCC1)C2(C)C)C(=O)C(=O)NCC (some centres unmarked) [Compound 11199] | ≤ 75 |
| CCCCC(NC(=O)[C@@H]1[C@@H]2[C@H](CN1C(=O)[C@@H](NC(=O)N[C@H](CN(C)S(C)(=O)=O)C(C)(C)C)C1(C)CCCCC1)C2(C)C)C(=O)C(=O)NC (some centres unmarked) [Compound 11200] | ≤ 75 |
| CCCC(NC(=O)[C@@H]1[C@@H]2[C@H](CN1C(=O)[C@@H](NC(=O)N[C@H](CN(C)S(C)(=O)=O)C(C)(C)C)C1(C)CCCCC1)C2(C)C)C(=O)C(=O)NC (some centres unmarked) [Compound 11201] | ≤ 75 |
| CN(C[C@@H](NC(=O)N[C@H](C(=O)N1C[C@H]2[C@@H]([C@H]1C(=O)NC(CC1CCC1)C(=O)C(N)=O)C2(C)C)C(C)(C)C)C(C)(C)C)S(=O)(=O)C(C)(C)C (some centres unmarked) [Compound 11203] | ≤ 75 |
| C=CCNC(=O)C(=O)C(CC1CC1)NC(=O)[C@@H]1[C@@H]2[C@H](CN1C(=O)[C@@H](NC(=O)N[C@H](CN(C)S(=O)(=O)C(C)(C)C)C(C)(C)C)C(C)(C)C)C2(C)C (some centres unmarked) [Compound 11204] | 75 to 250 |
| C=CCNC(=O)C(=O)C(CCC)NC(=O)[C@@H]1[C@@H]2[C@H](CN1C(=O)[C@@H](NC(=O)N[C@H](CN(C)S(=O)(=O)C(C)(C)C)C(C)(C)C)C(C)(C)C)C2(C)C (some centres unmarked) [Compound 11205] | ≤ 75 |
| C=CCNC(=O)C(=O)C(CC1CCC1)NC(=O)[C@@H]1[C@@H]2[C@H](CN1C(=O)[C@@H](NC(=O)N[C@H](CN(C)S(=O)(=O)C(C)(C)C)C(C)(C)C)C(C)(C)C)C2(C)C (some centres unmarked) [Compound 11206] | 75 to 250 |
| C#CCCC(NC(=O)[C@@H]1[C@@H]2[C@H](CN1C(=O)[C@@H](NC(=O)N[C@H](CN(C)S(=O)(=O)c1cccs1)C(C)(C)C)C(C)(C)C)C2(C)C)C(=O)C(N)=O (some centres unmarked) [Compound 11207] | ≤ 75 |
| C#CCCC(NC(=O)[C@@H]1[C@@H]2[C@H](CN1C(=O)[C@@H](NC(=O)N[C@H](CN(C)S(=O)(=O)c1sc(C)nc1C)C(C)(C)C)C(C)(C)C)C2(C)C)C(=O)C(N)=O (some centres unmarked) [Compound 11208] | ≤ 75 |
| C#CCCC(NC(=O)[C@@H]1[C@@H]2[C@H](CN1C(=O)[C@@H](NC(=O)N[C@H](CN(C)S(=O)(=O)c1ccccc1)C(C)(C)C)C(C)(C)C)C2(C)C)C(=O)C(N)=O (some centres unmarked) [Compound 11209] | ≤ 75 |
| C#CCCC(NC(=O)[C@@H]1[C@@H]2[C@H](CN1C(=O)[C@@H](NC(=O)N[C@H](CN(C)S(C)(=O)=O)C(C)(C)C)C1Cc3ccccc3C1)C2(C)C)C(=O)C(=O)NCCC (some centres unmarked) [Compound 11210] | ≤ 75 |
| CCCCC(NC(=O)[C@@H]1[C@@H]2[C@H](CN1C(=O)[C@@H](NC(=O)N[C@H](CN(C)S(C)(=O)=O)C(C)(C)C)C1Cc3ccccc3C1)C2(C)C)C(=O)C(=O)NC (some centres unmarked) [Compound 11211] | ≤ 75 |
